According to PubChem BioAssay AID1517 (The Scripps Research Institute Molecular Screening Center, 2009):
The entries are a selection whose mix differs from that of the whole data set. Activity calls are given as the source filed them.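 The calls were made as follows: active = percent inhibition of p97 ATPase above a set limit, the primary screen's mean plus 3 SD (cut at about 15% in these data); inactive = the rest.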

Sequences of proteins named here, by UniProt entry; tags and fusion partners are left off.
UniProt P55072, whole entry, looked up: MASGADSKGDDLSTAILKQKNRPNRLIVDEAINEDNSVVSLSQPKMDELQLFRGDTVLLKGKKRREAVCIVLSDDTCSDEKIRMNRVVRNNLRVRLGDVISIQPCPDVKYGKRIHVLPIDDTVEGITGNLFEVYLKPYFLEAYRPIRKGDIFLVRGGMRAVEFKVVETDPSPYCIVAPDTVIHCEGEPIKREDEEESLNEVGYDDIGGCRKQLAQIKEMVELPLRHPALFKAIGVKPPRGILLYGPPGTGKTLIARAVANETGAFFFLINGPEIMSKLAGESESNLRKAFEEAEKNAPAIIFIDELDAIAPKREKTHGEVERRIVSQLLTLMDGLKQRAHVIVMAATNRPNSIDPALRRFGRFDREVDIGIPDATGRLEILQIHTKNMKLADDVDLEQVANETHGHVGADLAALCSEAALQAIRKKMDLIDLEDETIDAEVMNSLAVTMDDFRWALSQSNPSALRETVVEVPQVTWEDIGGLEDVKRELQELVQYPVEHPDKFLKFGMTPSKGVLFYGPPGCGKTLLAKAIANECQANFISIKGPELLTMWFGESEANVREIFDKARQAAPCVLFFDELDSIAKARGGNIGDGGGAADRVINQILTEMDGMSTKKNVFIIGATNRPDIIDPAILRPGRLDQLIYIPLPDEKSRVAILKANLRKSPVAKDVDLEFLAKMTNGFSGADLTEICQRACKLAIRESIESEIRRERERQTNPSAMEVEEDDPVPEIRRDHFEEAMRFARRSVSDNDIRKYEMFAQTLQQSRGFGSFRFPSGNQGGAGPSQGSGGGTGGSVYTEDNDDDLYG

Target: Transitional endoplasmic reticulum ATPase (Homo sapiens) (UniProt P55072)
Test: p97 ATPase inhibitors, retest, confirmation, biochemical (AID 1517);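 also: 0% = DMSO wells and 100% = wells lacking p97 protein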
Settings: recombinant p97 ATPase, Kinase-Glo ATP luminescence; at 8 µM; stronger effect = higher value
How it was run: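 Test system: recombinant p97 ATPase. Buffer or medium: Tris/MgCl2/EDTA/DTT buffer, pH 8.0. Compound dosing: one dose, 8 µM nominal final. Timing: 30 min pre-incubation, 3 h ATP reaction. Technique: Kinase-Glo luminescence. Measure: % inhibition versus DMSO and no-enzyme controls. Benchmarks: DMSO-only and no-enzyme wells. Replication: each compound tested in triplicate.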

| SMILES | inhibition |
| --- | --- |
| C[N+]1=C2C=CC=CC=C2SC12C([N+](=O)[O-])=CC([N+](=O)[O-])=C[C-]2[N+](=O)[O-] (configuration not stated) | inactive: 4.13% |
| CCc1nc2c(n1)c1c(non1O)c1c2no[n+]1[O-] | active: 18.8% |
